# In patent US12338203B2 (TAISHO PHARMACEUTICAL CO., LTD., priority 2019, dated 2025):
# The chains behind the UniProt entries cited, without tags or fusion partners.
# UniProt Q92633, whole entry: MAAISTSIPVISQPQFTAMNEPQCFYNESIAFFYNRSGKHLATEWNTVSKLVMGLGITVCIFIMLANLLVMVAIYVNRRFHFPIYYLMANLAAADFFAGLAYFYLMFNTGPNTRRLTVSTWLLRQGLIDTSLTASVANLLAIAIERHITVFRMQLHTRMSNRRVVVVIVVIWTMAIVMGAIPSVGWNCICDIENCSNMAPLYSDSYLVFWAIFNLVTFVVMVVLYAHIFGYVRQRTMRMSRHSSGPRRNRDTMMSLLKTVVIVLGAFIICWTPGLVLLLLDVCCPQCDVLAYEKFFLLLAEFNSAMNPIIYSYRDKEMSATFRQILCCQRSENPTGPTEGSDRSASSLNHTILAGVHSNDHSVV
# Target: human LPAR1 (Homo sapiens, UniProt Q92633)
# Experiment: Test Example 1: antagonism against response of LPA-induced increase in intracellular Ca2+ concentration in RH7777 cells stably expressing human LPAR1
# Assay type: cell-based
# Details: read-out: IC50 value (concentration producing 50% antagonism against response of LPA-induced increase in intracellular Ca2+ concentration), Fluo-4 fluorescence, FDSS6000
row,Structure (SMILES),IC50 [nM]
1,CCOc1c(C2CC2)ccc([C@@H](C)N(CCO[C@@H](C)c2ccccc2)C(=O)N[C@]2(C(=O)O)C[C@@H](OCC)C2)c1Cl,2.17
2,CCOc1cc([C@@H](C)N(CCO[C@H](C)c2ccccc2)C(=O)NC2(C(=O)O)CC(OC)C2)cc(OCC)c1C(C)=O (some centres unmarked),4.07
3,CCOc1cc(C(C)N(CCCCc2ccccc2)C(=O)NC2(C(=O)O)CC(F)(F)C2)cc2c1c(C)nc(=O)n2CC (centres unmarked),2120
4,CCOc1cc([C@@H](C)N(CCCC(F)(F)c2ccccc2)C(=O)NC2CC(C(=O)O)C2)cc(OCC)c1C1CC1 (some centres unmarked),3.17
5,CCOc1cc(C(C)N(CCCCc2ccccc2)C(=O)NC2(C(=O)O)CC(F)(F)C2)c2cn(CC)nc2n1 (centres unmarked),38.3
6,CCOc1cc(C(C)N(CCCCc2ccccc2)C(=O)NC2(C(=O)O)CC(F)(F)C2)cc2c1ncn2CC (centres unmarked),190
7,CCOc1cc([C@@H](C)N(CCOCc2ccccc2)C(=O)NC2(C(=O)O)CC2)cc(OCC)c1C(C)=O,2.29
8,CCOc1cc([C@@H](C)N(CCCCc2ccccc2)C(=O)NC2CCOCC2C(=O)O)c(Cl)c(OCC)c1C(C)O (some centres unmarked),3.84
9,CCOc1c(C(C)=O)ccc([C@@H](C)N(CCO[C@H](C)c2ccccc2)C(=O)NC2(C(=O)O)CC(OC)C2)c1C (some centres unmarked) [Example 4-154],8.59
10,CCOc1cc([C@@H](C)N(CCO[C@@H](C)c2ccccc2)C(=O)N[C@]2(C(=O)O)C[C@H](OCC)C2)c(Cl)c(OCC)c1C(C)O (some centres unmarked) [Example 5-63],4.21
11,CCOc1c(C(C)(C)O)ccc([C@@H](C)N(CCCCc2ccccc2)C(=O)NC2(C(=O)O)CC(F)(F)C2)c1C,3.05
12,CCOc1cc(C(C)N(CCCCc2ccccc2)C(=O)NC2(C(=O)O)CC(F)(F)C2)cc(N(CC)CC)c1C(C)=O (centres unmarked),90.9
13,CCOc1cc([C@@H](C)N(CCO[C@H](C)c2ccccc2)C(=O)NC2(C(=O)O)CC(OC)C2)cc(OCC)c1C1CC1 (some centres unmarked),1.34
14,CCOc1c(C2CC2)ccc([C@@H](C)N(CCO[C@H](C)c2ccccc2)C(=O)NC2(C(=O)O)CC(OCC)C2)c1C (some centres unmarked),3.51
15,CCOc1cc(C(C)N(CCCCc2ccccc2)C(=O)NC2(C(=O)O)CC(F)(F)C2)cc(N(C)CC)c1C(C)=O (centres unmarked),5.05
16,CCOc1cc([C@@H](C)N(CCCCc2ccccn2)C(=O)NC2(C(=O)O)CC(F)(F)C2)cc(OCC)c1C,27.1
17,CCOc1cc(C(C)N(CCCCc2ccccc2)C(=O)NC2(C(=O)O)CC(F)(F)C2)cn(CC)c1=O (centres unmarked),1530
18,CCOc1cc([C@@H](C)N(CCCCC2CCCCC2)C(=O)NC2(C(=O)O)CC(F)(F)C2)cc(OCC)c1C,30.7
19,CCOC(=O)C1(NC(=O)N(CCO[C@@H](C)c2ccccc2)C(C)c2cc(OCC)c(C(C)=O)c(OCC)c2)CC(F)(F)C1 (some centres unmarked),1360
20,CCOc1cc([C@@H](C)N(CCC2Cc3ccccc3C2)C(=O)NC2(C(=O)O)CC(OC)C2)c(C)c(OCC)c1C(C)=O (some centres unmarked) [Example 4-24],10.4
